Laboratory results published in ChEMBL document CHEMBL1121722, “Nonquaternary cholinesterase reactivators. Dialkylaminoalkyl thioesters of alpha-ketothiohydroximic acids as reactivators of diisopropyl phosphorofluoridate inhibited acetylcholinesterase” (1981).

Experiment: Dissociation constant of the compound

Structure (SMILES)	pKa
COc1ccc(C(=O)/C(=N/O)SCCN(C(C)C)C(C)C)cc1.Cl	8.01
COc1ccc(C(=O)/C(=N/O)SCCCN(C)C)cc1.O=C(O)C(=O)O	8.42
CCN(CC)CCS/C(=N\O)C(=O)c1ccc([N+](=O)[O-])cc1.Cl	7.14
CC[N+](C)(CC)CCS/C(=N\O)C(=O)c1ccc(OC)cc1.[I-]	7.82
CCN(CC)CCS/C(=N\O)C(=O)c1ccccc1.Cl	7.6
CCN(CC)CCS/C(=N\O)C(=O)c1ccc(OC)cc1.Cl	7.82
CCN(CC)CCS/C(=N\O)C(C)=O.Cl	7.4
CCN(CC)CCS/C(=N\O)C(=O)c1ccc(Br)cc1.Cl	9.28
COc1ccc(C(=O)/C(=N/O)SCCN(C)C)cc1.Cl	8
